From ChEMBL document CHEMBL1687805, “Colistin resistance in Acinetobacter baumannii is mediated by complete loss of lipopolysaccharide production” (2010)

System: Acinetobacter baumannii
Test: Antibacterial activity against Acinetobacter baumannii ATCC 19606 by broth microdilution method
Assay type: functional
Outline: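 Broth microdilution MIC in cation-adjusted Mueller-Hinton broth following the CLSI protocol, read in μg/ml. Strains were kept on Mueller-Hinton agar and cultured at 37°C. 19606R was selected directly on 10 μg/ml colistin and maintained with it. The pWH1266 or pAL840 transformants of 19606R were introduced by electroporation and selected on 100 μg/ml ampicillin.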

Sequence: COLISTIN SULFATE
- MIC: 1 µg/mL
